Apparent affinities of Ab-14 variants for a coronavirus HR2 peptide

Reference: Engelhart et al. 2022, doi:10.1038/s41597-022-01779-4. File: FLAb, binding data.

Binding partner: SARS-CoV-2 spike HR2 peptide, sequence PDVDLGDISGINAS.

The variants keep the light chain, the linker and the frameworks of Ab-14 (scFv order VH, a 15-residue (Gly4Ser)3 linker, VL).
VH: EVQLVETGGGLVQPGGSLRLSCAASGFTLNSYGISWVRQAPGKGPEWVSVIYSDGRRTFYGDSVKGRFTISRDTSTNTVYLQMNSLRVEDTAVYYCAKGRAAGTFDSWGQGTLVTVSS
VL: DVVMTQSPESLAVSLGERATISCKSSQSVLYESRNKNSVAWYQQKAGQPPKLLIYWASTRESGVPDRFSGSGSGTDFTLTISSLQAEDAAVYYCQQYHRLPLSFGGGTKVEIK

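In library AAYL49, one, two or three CDR residues were substituted; doubles and triples were drawn at random. In AlphaSeq, yeast of one mating type display the scFv and yeast of the other type display the target. Mating (16 h, 30 °C) was followed by selection of diploids and sequencing of their barcodes. The ratio of observed to expected reads was calibrated, replicate by replicate, on BCL2-family standards whose Kd was known from biolayer interferometry. There are three technical replicates.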

Changes read parent residue, position, new residue, counted from the first residue of the VH shown. All variants listed here change D62 of the VH, counted from its first residue. Kd is apparent (estimated from mating counts) and averaged on the log scale over replicates with a signal. Smaller is tighter. "nd" marks a missing value. The strain was present, yet no cells mated with the target were sequenced in any replicate, which points to weak or no binding. For reference, the parent read 4.4 nM as the reference entry and 13 µM (one replicate of three) as a member of this library.

- S53D D62T V64F -> nd (0 of 3 replicates; controls 2 of 9)
- D62A -> 27 nM (3 of 3 replicates; controls 0 of 9)
- G26S S31E D62R -> 3.9 µM (2 of 3 replicates; controls 1 of 9)
- Y32Q D62P -> 30 nM (3 of 3 replicates; controls 0 of 9)
- Y32F D54Y D62R -> 420 µM (3 of 3 replicates; controls 1 of 9)
- T28S D62P F105A -> nd (0 of 3 replicates; controls 1 of 9)
- V50C D62S D106M -> 3.5 µM (1 of 3 replicates; controls 0 of 9)
- F27L Y32G D62P -> 9.1 µM (1 of 3 replicates; controls 3 of 9)
- G55S R57F D62A -> 18 µM (1 of 3 replicates; controls 0 of 9)
- V50T I51K D62L -> 3.8 µM (1 of 3 replicates; controls 2 of 9)
- R56Q D62H T104D -> 11 µM (2 of 3 replicates; controls 2 of 9)
- D62T V64Y D106W -> nd (0 of 3 replicates; controls 0 of 9)
- Y32H D62S V64R -> 15 µM (3 of 3 replicates; controls 2 of 9)
- N30G D62H F105W -> nd (0 of 3 replicates; controls 0 of 9)
- S31L D62A F105T -> nd (0 of 3 replicates; controls 0 of 9)
- T58E D62S -> 360 nM (3 of 3 replicates; controls 1 of 9)
- F59R D62E D106S -> 480 nM (2 of 3 replicates; controls 4 of 9)
- S35E D62I G103V -> nd (0 of 3 replicates; controls 0 of 9)
- S35Q D62M -> 18 µM (1 of 3 replicates; controls 1 of 9)
- Y60F D62Q -> nd (0 of 3 replicates; controls 0 of 9)
- Y32P Y52W D62H -> nd (0 of 3 replicates; controls 0 of 9)
- F27P D62V S63K -> nd (0 of 3 replicates; controls 0 of 9)
- R56I D62M A101W -> 440 nM (3 of 3 replicates; controls 2 of 9)
- F27K G61F D62V -> nd (0 of 3 replicates; controls 0 of 9)
- I34H R57T D62N -> nd (0 of 3 replicates; controls 0 of 9)
- L29I D62H A102L -> 9.4 µM (3 of 3 replicates; controls 1 of 9)
- F27D F59E D62V -> 90 nM (1 of 3 replicates; controls 0 of 9)
- L29P D54M D62S -> nd (0 of 3 replicates; controls 0 of 9)
- R56G D62Y S63H -> nd (0 of 3 replicates; controls 0 of 9)
- G26P G61I D62N -> 88 nM (3 of 3 replicates; controls 2 of 9)
- G26M Y52W D62G -> nd (0 of 3 replicates; controls 0 of 9)
- Y60M D62W S63V -> 86 µM (2 of 3 replicates; controls 6 of 9)
- N30H D62M S63T -> nd (0 of 3 replicates; controls 1 of 9)
- S35I R57L D62Q -> nd (0 of 3 replicates; controls 2 of 9)
- T58Q F59I D62V -> 3.2 µM (1 of 3 replicates; controls 2 of 9)
- D62R D106H S107R -> 190 nM (3 of 3 replicates; controls 1 of 9)
- D62Q S63N G103M -> nd (0 of 3 replicates; controls 2 of 9)
- T58R F59K D62W -> nd (0 of 3 replicates; controls 1 of 9)
- D62C G103Q -> 5.2 µM (3 of 3 replicates; controls 2 of 9)
- D62H V64Y G103P -> 3.1 µM (1 of 3 replicates; controls 2 of 9)
- D62R V64W K65Q -> 750 nM (1 of 3 replicates; controls 0 of 9)
- R56I R57T D62G -> nd (0 of 3 replicates; controls 0 of 9)
- Y32V R57C D62I -> nd (0 of 3 replicates; controls 0 of 9)
- Y60L D62H T104C -> 3.4 µM (2 of 3 replicates; controls 2 of 9)
- D62K V64I F105L -> 37 µM (1 of 3 replicates; controls 2 of 9)
- I34A D62V D106P -> nd (0 of 3 replicates; controls 0 of 9)

The closing 5 entries, repeated:

changes	apparent Kd	seen in	control signals
R56I R57T D62G	nd	0/3	0/9
Y32V R57C D62I	nd	0/3	0/9
Y60L D62H T104C	3.4 µM	2/3	2/9
D62K V64I F105L	37 µM	1/3	2/9
I34A D62V D106P	nd	0/3	0/9

Empty control strains, which show no peptide, gave a signal in 15% of pairings with library AAYL49; the median was 11 µM and 95% of these signals were weaker than 680 nM. No background was subtracted. The control count says in how many pairings with the empty strains this scFv gave a signal.